# How the values were obtained:
# By UniProt entry, the sequences of proteins in these tests, tags left out. Where a name states a change or a piece, a line headed by the entry shows the natural chain unless it says otherwise.
# UniProt Q9H0R8, whole entry: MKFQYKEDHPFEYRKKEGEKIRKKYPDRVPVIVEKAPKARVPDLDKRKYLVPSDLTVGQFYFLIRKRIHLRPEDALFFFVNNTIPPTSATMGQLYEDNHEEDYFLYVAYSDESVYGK
# UniProt P60520, whole entry: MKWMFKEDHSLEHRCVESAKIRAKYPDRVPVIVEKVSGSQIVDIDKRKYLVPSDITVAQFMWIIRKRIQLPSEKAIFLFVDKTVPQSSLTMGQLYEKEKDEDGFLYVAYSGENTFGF
# UniProt Q9BXW4: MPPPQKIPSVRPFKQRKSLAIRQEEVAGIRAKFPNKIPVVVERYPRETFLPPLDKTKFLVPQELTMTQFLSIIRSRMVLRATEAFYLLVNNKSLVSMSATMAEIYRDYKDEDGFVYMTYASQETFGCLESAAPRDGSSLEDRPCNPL
# LC3A = target: T1, LC3A (Homo sapiens, UniProt Q9H492); test: Bio-layer interferometry (BLI), LIR peptide binding to LC3A; details: n=2 independent experiments; for Rmax (best-fit value, theoretical response maxium): non linear regression
# T1 construct: GST (followed by 3C protease site) (N); made in house; host or cells: bacteria (E. coli BL21 (DE3) pLysS is stated for the GST-ATG8 proteins of the overlay assay)
# Procedure: (§1) For recombinant protein expression in bacteria, a modified plasmid of pGEX-6P2 (GE Healthcare) (referred to as pAL) containing an N-terminal […] followed by a 3C protease cleavage site was used.
# (§2) Expression was induced by the addition of 0.5 mM IPTG at OD600 = 0.6 and cells were incubated at 25 °C overnight or at 37 °C for 5 h. Harvested cells were lysed in 50 mM Tris-HCl, pH 8.0, 500 mM NaCl, 0.1% Triton X-100, 0.4 mM 4-(2-aminoethyl)-benzenesulfonylfluoride HCl (AEBSF), and 15 µg/ml benzamidine. Fusion protein was batch adsorbed onto Glutathione-Sepharose 4B beads (GE Healthcare). After five washes with wash buffer (50 mM Tris, pH 8.0, 250 mM NaCl, 0.4 mM AEBSF, and 15 µg/ml benzamidine), fusion proteins were eluted in 50 mM Tris, pH 8.0, 2 mM L-glutathione reduced, 0.4 mM AEBSF, and 15 µg/ml benzamidine.
# (§3) The biosensor tip surface immobilized with a ligand is incubated with an analyte in solution, resulting in an increase in optical thickness at the biosensor tip and a wavelength shift, which is a direct measure of the change in thickness. […] Ligand-loaded SA biosensors were then incubated with different concentrations of ATG8. All binding experiments were performed in solid-black 96-well plates containing 200 μl of solution (25 mM Tris, pH 7.5, 150 mM NaCl, 0.5 mM TCEP, 0.1% Tween-20, 1 mg/ml bovine serum albumin (BSA)) in each well at 25 °C with an agitation speed of 1000 rpm. Each measurement was repeated two to five times.
# (§4) Peptides were synthesized using FMOC (fluorenylmethoxycarbonyl) solid-phase peptide chemistry by the Francis Crick Peptide Chemistry Technology Platform and are listed in Supplementary Table 2.
# LC3B = target: T2, LC3B (Homo sapiens, UniProt Q9GZQ8); test: BLI, LIR peptide binding to LC3B; details: n=2 independent experiments; for Rmax (best-fit value, theoretical response maxium): non linear regression
# T2 construct: GST (followed by 3C protease site) (N); made in house; host or cells: bacteria (E. coli BL21 (DE3) pLysS is stated for the GST-ATG8 proteins of the overlay assay)
# Procedure: as §1, §2, §3, §4
# GABARAP = target: T3, GABARAP (Homo sapiens, UniProt O95166); test: BLI, LIR peptide binding to GABARAP; details: n=2 independent experiments; for Rmax (best-fit value, theoretical response maxium): non linear regression
# T3 construct: GST (followed by 3C protease site) (N); made in house; host or cells: bacteria (E. coli BL21 (DE3) pLysS is stated for the GST-ATG8 proteins of the overlay assay)
# Procedure: as §1, §2, §3, §4
# GABARAPL1 = target: T4, GABARAPL1 (Homo sapiens, UniProt Q9H0R8); test: BLI, LIR peptide binding to GABARAPL1; details: n=2 independent experiments; for Rmax (best-fit value, theoretical response maxium): non linear regression
# T4 construct: GST (followed by 3C protease site) (N); made in house; host or cells: bacteria (E. coli BL21 (DE3) pLysS is stated for the GST-ATG8 proteins of the overlay assay)
# Procedure: as §1, §2, §3, §4
# GABARAPL2 = target: T5, GABARAPL2 (Homo sapiens, UniProt P60520); test: BLI, LIR peptide binding to GABARAPL2; details: n=2 independent experiments; for Rmax (best-fit value, theoretical response maxium): non linear regression
# T5 construct: GST (followed by 3C protease site) (N); made in house; host or cells: bacteria (E. coli BL21 (DE3) pLysS is stated for the GST-ATG8 proteins of the overlay assay)
# Procedure: as §1, §2, §3, §4
# [1] = target: T6, GABARAP K24Q/Y25H/Q59E/F60L (Homo sapiens, UniProt O95166, F60L/K24Q/Q59E/Y25H); test: BLI, LIR peptide binding to GABARAP K24Q/Y25H/Q59E/F60L; details: best-fit value of BLI response; ATG13 WT LIR peptide; n=2
# T6 construct: GST (followed by 3C protease site) (N); made in house
# Procedure: as §1, §3, §4
# LC3B E62Q = target: T7, LC3B E62Q (Homo sapiens, UniProt Q9GZQ8, E62Q); test: BLI, LIR peptide binding to LC3B E62Q; details: best-fit value of BLI response; ATG13 WT LIR peptide; n=2
# T7 construct: GST (followed by 3C protease site) (N); made in house
# Procedure: as §1, §3, §4
# LC3B Q26K/H27Y/E62Q = target: T8, LC3B Q26K/H27Y/E62Q (Homo sapiens, UniProt Q9GZQ8, E62Q/H27Y/Q26K); test: BLI, LIR peptide binding to LC3B Q26K/H27Y/E62Q; details: best-fit value of BLI response; ATG13 WT LIR peptide; n=2
# T8 construct: GST (followed by 3C protease site) (N); made in house
# Procedure: as §1, §3, §4
# LC3C = target: T9, LC3C (Homo sapiens, UniProt Q9BXW4); test: BLI, LIR peptide binding to LC3C; details: n=2 independent experiments
# T9 construct: GST (followed by 3C protease site) (N); made in house; host or cells: bacteria (E. coli BL21 (DE3) pLysS is stated for the GST-ATG8 proteins of the overlay assay)
# Procedure: as §1, §2, §3, §4
SMILES,"Rmax (best-fit value, theoretical response maxium) (LC3A)","Rmax (best-fit value, theoretical response maxium) (LC3B)","Rmax (best-fit value, theoretical response maxium) (GABARAP)","Rmax (best-fit value, theoretical response maxium) (GABARAPL1)","Rmax (best-fit value, theoretical response maxium) (GABARAPL2)",Rmax [1],Rmax (LC3B E62Q),Rmax (LC3B Q26K/H27Y/E62Q),Rmax (best-fit value) (LC3A; fit of response vs LC3A concentration),Rmax (best-fit value) (LC3B; fit of response vs LC3B concentration),Rmax (best-fit value) (LC3C; fit of response vs LC3C concentration),Rmax (best-fit value) (GABARAP; fit of response vs GABARAP concentration),Rmax (best-fit value) (GABARAPL1; fit of response vs GABARAPL1 concentration),Rmax (best-fit value) (GABARAPL2; fit of response vs GABARAPL2 concentration),"Rmax (best-fit value, theoretical response maxium) (LC3C; non linear regression)"
CC[C@H](C)[C@H](NC(=O)[C@H](CCSC)NC(=O)[C@@H](NC(=O)[C@H](Cc1ccccc1)NC(=O)[C@H](CC(=O)O)NC(=O)[C@H](CC(=O)O)NC(=O)[C@H](Cc1c[nH]cn1)NC(=O)[C@@H](NC(=O)[C@H](CC(N)=O)NC(=O)CNC(=O)[C@H](CO)NC(=O)[C@@H](N)CO)[C@@H](C)O)C(C)C)C(=O)N[C@@H](CC(=O)O)C(=O)N[C@@H](Cc1ccccc1)C(=O)N[C@@H](CCCCN)C(=O)N1CCC[C@H]1C(=O)N[C@@H](C)C(=O)N[C@@H](Cc1ccccc1)C(=O)N[C@@H](CO)C(=O)N[C@@H](CCCCN)C(=O)N[C@@H](CC(=O)O)C(=O)O [ATG13 WT],2.009,0.9081,2.77,2.913,2.445,1.459,1.801,2.477,–,–,–,–,–,–,–
CSCC[C@H](NC(=O)[C@@H](NC(=O)[C@@H](N)Cc1ccccc1)C(C)C)C(=O)N[C@H](C(=O)N1CCC[C@H]1C(=O)N[C@@H](C)C(=O)N[C@@H](CCC(N)=O)C(=O)N[C@@H](Cc1ccccc1)C(=O)N1CCC[C@H]1C(=O)NCC(=O)N[C@@H](CC(=O)O)C(=O)N[C@@H](CC(C)C)C(=O)N[C@H](C(=O)O)C(C)C)C(C)C [ULK1 (aa 357-369)],–,–,–,–,–,–,–,–,1.233,0.7857,0.6543,0.1167,0.5113,0.3039,–
CC(C)C[C@H](NC(=O)[C@H](Cc1c[nH]cn1)NC(=O)[C@@H](NC(=O)[C@H](Cc1c[nH]c2ccccc12)NC(=O)[C@H](CC(=O)O)NC(=O)[C@H](CC(=O)O)NC(=O)[C@H](CC(=O)O)NC(=O)CNC(=O)CNC(=O)[C@H](CO)NC(=O)[C@H](CS)NC(=O)[C@@H](N)CC(N)=O)[C@@H](C)O)C(=O)N[C@@H](CO)C(=O)N[C@@H](CO)C(=O)N[C@@H](CCCCN)C(=O)N[C@@H](CCC(=O)O)C(=O)N[C@H](C(=O)N[C@@H](CC(=O)O)C(=O)N1CCC[C@H]1C(=O)N[C@@H](CO)C(=O)N[C@H](C(=O)O)[C@@H](C)O)C(C)C [p62 WT],2.263,1.787,2.373,3.016,2.117,–,–,–,–,–,–,–,–,–,2.622
